Earlier results, collected in paper PMC10406941 (Scientific Reports, 2023).
Like-named read-outs stand apart in the source and are kept apart here.

Protein sequences, listed by entry. Tags and fused reporters are not part of them. Lines headed by an entry give the natural chain unless they say otherwise; changes in a name come on top.
UniProt Q5U3Y7, whole entry: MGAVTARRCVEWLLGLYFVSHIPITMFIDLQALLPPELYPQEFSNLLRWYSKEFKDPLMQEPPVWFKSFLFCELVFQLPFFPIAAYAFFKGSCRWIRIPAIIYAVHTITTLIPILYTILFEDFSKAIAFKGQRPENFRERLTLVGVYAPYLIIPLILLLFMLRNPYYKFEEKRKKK
UniProt Q60492, whole entry: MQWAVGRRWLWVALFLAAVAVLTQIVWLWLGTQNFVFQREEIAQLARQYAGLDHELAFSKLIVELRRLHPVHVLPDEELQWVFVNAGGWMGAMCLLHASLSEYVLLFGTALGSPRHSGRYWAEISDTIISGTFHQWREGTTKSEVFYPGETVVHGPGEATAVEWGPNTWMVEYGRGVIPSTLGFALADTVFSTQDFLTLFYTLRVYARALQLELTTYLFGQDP

Tests used:
[1] = target: S2R (Rattus norvegicus, UniProt Q5U3Y7); settings: read-out: Ki nM S2R, [3H]-DTG, rat liver, masking with (+)-Pentazocine, cited from earlier work
[2] = target: S1R (Cavia porcellus, UniProt Q60492); settings: read-out: Ki nM S1R, [3H]-(+)-Pentazocine, guinea pig brain, cited from earlier work

Row | SMILES | Ki ([1]; Table 3) | Ki ([2]; Table 2) | Ki ([1]; Table 2) | Ki ([2]; Table 3)
1 | C1CCC(CCCN2CCN(C3CCCCC3)CC2)CC1 | 4.7 nM |  |  | 
2 | COc1cc2c(cc1OC)CN(CCCN1CCCc3c(OC)cccc31)CC2 |  | 3990 nM | 1.42 nM | 
3 | O=C1COc2cccnc2N1CCCN1CCN(C2CCCCC2)CC1 | 16 nM |  |  | 12 nM
4 | COc1ccc([C@H]2CC[C@@H](CCCN3CCN(C4CCCCC4)CC3)CC2)cc1 (relative stereo) | 1.59 nM |  |  | 0.81 nM
5 | COc1ccc([C@H]2CC[C@H](CCCN3CCN(C4CCCCC4)CC3)CC2)cc1 (relative stereo) | 1.21 nM |  |  | 0.23 nM
6 | COc1cccc(OC)c1[C@H]1CC[C@@H](CCCN2CCN(C3CCCCC3)CC2)CC1 (relative stereo) | 7.92 nM |  |  | 0.26 nM
7 | COc1cccc(OC)c1[C@H]1CC[C@H](CCCN2CCN(C3CCCCC3)CC2)CC1 (relative stereo) | 0.21 nM |  |  | 0.32 nM
8 | c1ccc([C@H]2CC[C@@H](CCCN3CCN(C4CCCCC4)CC3)CC2)cc1 (relative stereo) | 3.66 nM |  |  | 0.042 nM
9 | c1ccc([C@H]2CC[C@H](CCCN3CCN(C4CCCCC4)CC3)CC2)cc1 (relative stereo) | 4.77 nM |  |  | 0.045 nM
